Structures are written as SMILES.

Amino acid sequences for entries named in this document (tags omitted). Residues count along the entry.
UniProt Q5S007, 970-2527 G2019S: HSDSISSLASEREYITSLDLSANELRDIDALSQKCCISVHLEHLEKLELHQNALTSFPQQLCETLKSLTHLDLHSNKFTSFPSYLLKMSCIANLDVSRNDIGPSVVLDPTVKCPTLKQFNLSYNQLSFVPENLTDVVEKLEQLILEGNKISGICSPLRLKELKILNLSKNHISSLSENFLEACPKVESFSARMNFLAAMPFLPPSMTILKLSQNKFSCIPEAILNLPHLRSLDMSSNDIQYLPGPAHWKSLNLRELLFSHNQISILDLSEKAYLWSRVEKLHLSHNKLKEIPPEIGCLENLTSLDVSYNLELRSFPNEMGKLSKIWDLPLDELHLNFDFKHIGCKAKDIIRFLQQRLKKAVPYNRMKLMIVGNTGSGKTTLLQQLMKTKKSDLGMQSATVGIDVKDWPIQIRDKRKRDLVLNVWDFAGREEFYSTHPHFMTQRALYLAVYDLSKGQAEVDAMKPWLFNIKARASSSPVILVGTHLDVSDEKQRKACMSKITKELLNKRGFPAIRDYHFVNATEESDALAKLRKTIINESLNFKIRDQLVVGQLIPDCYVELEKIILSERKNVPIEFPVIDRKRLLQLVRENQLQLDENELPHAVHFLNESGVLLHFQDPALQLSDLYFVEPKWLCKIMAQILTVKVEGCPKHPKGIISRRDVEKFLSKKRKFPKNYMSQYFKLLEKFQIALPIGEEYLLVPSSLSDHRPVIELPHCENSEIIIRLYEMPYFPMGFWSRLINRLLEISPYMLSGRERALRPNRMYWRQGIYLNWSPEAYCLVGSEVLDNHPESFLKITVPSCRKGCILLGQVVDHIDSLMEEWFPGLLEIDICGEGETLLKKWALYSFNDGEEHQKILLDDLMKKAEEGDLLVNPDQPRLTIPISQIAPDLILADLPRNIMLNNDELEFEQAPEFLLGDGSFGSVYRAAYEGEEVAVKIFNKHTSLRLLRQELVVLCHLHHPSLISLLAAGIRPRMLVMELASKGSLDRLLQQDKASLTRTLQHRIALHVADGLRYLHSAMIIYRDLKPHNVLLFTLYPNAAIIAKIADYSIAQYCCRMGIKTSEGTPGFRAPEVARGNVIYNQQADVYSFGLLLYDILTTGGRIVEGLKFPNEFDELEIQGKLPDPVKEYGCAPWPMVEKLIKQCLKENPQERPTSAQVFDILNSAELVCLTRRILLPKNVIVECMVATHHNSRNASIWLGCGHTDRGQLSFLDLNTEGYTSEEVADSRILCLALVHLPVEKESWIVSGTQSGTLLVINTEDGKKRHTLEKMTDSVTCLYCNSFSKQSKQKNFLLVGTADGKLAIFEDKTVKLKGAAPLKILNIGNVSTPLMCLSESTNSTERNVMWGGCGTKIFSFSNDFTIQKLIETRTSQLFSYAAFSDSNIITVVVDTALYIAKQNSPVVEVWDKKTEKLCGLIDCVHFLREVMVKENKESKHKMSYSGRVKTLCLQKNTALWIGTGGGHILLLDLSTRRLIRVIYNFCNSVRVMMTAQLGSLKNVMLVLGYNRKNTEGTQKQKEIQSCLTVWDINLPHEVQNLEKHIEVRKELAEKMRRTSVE

The experiment concerns the target LRRK2 (Homo sapiens (Human), UniProt Q5S007, G2019S). Briefly: In Vitro LRRK2 LabChip Assay (LRRK2 Ki). The format is biochemical. How it is done: In Vitro LRRK2 LabChip Assay
This assay was used to determine a compound's potency in inhibiting activity of LRRK2 by determining, Kiapp, IC50, or percent inhibition values. In a polypropylene plate, LRRK2, fluorescently-labeled peptide substrate, ATP and test compound were incubated together. Using a LabChip 3000 (Caliper Life Sciences), after the reaction the substrate was separated by capillary electrophoresis into two populations: phosphorylated and unphosphorylated. The relative amounts of each were quantitated by fluorescence intensity. LRRK2 Ki was determined according to the equation: Y=V0*(1−((x+Ki*(1+S/Km)+Et)/(2*Et)−(((x+Ki*(1+S/Km)+Et)^2−(4*Et*x))^0.5)/(2*Et))). Ki values in Table 4 and elsewhere herein are shown in μM.
Assay conditions and materials used were as follows:
LRRK2 Wild type in 5 mM MgCl2: 15 nM (Invitrogen lot #500607F)
Kinase reaction time: 2 hours
Wild type in 5 mM MgCl2: 80 μM
Solid Support: Black 50 μL volume polypropylene 384 well plate (MatriCal cat #MP101-1-PP)
Kinase: LRRK2 G2019S (Invitrogen cat #PV4882). • LRRK2 Wild type (Invitrogen cat #PV4874).
Substrate: 5FAM-[…]-CONH2
Non-binding plate: 384 well clear V-bottom polypropylene plates (Greiner cat #781280).
ATP: 10 mM ATP (Cell Signaling cat #9804).
Coating Reagent #3: Coating Reagent #3 (Caliper). […]
The plate was incubated for 2 hours in the dark. […] Results were read on the LabChip 3000. […]

As usually defined, the Ki is the dissociation constant of the complex between target and ligand, obtained from inhibition or displacement. Turning to `CNc1nc(Nc2ccc(CN3CCOCC3)cc2OCCF)ncc1Cl` [Example 14, 5-Chloro-N2-[2-(2-fluoro-ethoxy)-4-morpholin-4-ylmethyl-phenyl]-N4-methyl-pyrimidine-2,4-diamine], the affinity corresponds to a Ki of 9 nM.
